Experimental data published in patent US20240002522A1 (INSERM INSTITUT NATIONAL DE LA SANTE ET DE LA RECHERCHE …, published 2024).

Target: T1, human CD25 (human, UniProt P01589 22-272)
T1 construct: In the functional assays it was native on T cells or SUDHL-1 cells; also called huCD25; hCD25
T1 sequence: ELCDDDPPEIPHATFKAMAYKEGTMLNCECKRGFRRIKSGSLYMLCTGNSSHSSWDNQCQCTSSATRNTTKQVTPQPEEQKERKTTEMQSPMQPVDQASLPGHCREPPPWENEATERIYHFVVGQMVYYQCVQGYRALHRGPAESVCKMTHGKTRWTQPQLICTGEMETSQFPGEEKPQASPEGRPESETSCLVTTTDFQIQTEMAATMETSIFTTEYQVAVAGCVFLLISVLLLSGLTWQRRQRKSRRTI
Assay: flow cytometry on HEK293 cells transiently transfected with huCD25; 3-fold dilutions from 500 nM; detection with anti-mouse IgG-APC

B1: Basiliximab (antibody, V domains shown)
VH: QVQLQQSGTVLARPGASVKMSCKASGYSFTRYWMHWIKQRPGQGLEWIGAIYPGNSDTSYNQKFEGKAKLTAVTSASTAYMELSSLTHEDSAVYYCSRDYGYYFDFWGQGTTLTVSS
VL: QIVSTQSPAIMSASPGEKVTMTCSASSSRSYMQWYQQKPGTSPKRWIYDTSKLASGVPARFSGSGSGTSYSLTISSMEAEDAATYYCHQRSSYTFGGGTKLEIK
EC50 (read off the curve): ~0.9 nM
